ChEMBL document CHEMBL1133082, “Adenosine kinase inhibitors. 2. Synthesis, enzyme inhibition, and antiseizure activity of diaryltubercidin analogues” (J Med Chem, 2000)

Sequences of proteins named here, by UniProt entry; tags and fusion partners are left off. A change or cut given only in a name is not applied to a line headed by its entry.
UniProt P55263: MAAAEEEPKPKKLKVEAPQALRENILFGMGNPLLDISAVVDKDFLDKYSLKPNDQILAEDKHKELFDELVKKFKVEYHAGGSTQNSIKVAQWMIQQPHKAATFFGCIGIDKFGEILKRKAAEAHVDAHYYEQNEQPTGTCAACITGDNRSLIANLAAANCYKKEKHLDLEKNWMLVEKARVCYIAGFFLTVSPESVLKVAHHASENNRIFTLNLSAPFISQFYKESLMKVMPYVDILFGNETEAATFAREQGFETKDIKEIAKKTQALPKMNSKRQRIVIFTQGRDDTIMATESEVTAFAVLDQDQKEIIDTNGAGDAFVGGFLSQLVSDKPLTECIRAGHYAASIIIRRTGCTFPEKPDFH

Biological target: Adenosine kinase (Homo sapiens, UniProt P55263)
Test: Inhibition of recombinant human adenosine kinase

With `C[C@H]1O[C@@H](n2cc(-c3ccccc3)c3c(Nc4ccc(F)cc4)ncnc32)[C@H](O)[C@@H]1O` the pIC50 was 8.82.

pIC50: −log10 of the molar value.
